These results are taken from publication PMC2882293 (Neuropharmacology, 2010).

Sequences of proteins named here, by UniProt entry; tags and fusion partners are left off.
UniProt P47746, whole entry: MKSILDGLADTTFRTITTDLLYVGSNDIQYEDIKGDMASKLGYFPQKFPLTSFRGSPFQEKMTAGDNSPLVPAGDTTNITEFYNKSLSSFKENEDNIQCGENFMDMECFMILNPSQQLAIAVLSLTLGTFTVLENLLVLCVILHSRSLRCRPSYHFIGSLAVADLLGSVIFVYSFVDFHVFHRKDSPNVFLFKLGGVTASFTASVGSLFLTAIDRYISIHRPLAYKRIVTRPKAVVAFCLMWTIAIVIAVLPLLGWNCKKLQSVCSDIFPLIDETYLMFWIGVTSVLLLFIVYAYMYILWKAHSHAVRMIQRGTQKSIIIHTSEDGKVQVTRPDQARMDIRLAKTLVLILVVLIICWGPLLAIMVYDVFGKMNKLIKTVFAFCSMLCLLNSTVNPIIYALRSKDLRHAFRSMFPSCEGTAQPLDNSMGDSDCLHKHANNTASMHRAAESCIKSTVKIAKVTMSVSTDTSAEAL

In the assay the target is cannabinoid type 1 receptor (CB1R) (Mus musculus, UniProt P47746). The experiment in a line: whole-cell electrophysiology, inhibition of synaptic GABA IPSCs in CA1 neurons.

Usually EC50 stands for the concentration at which the effect is half-maximal. A higher EC50 goes with a need for much substance.

For the compound `CCCCCc1cc(O)c2c(c1)OC(C)(C)[C@@H]1CCC(C)=C[C@@H]21` [Δ^9-THC], the EC50 was determined as 1.22 µM.
